# Measured affinities in a library of Ab-14 light chain variants

Values reported by Li et al. 2023, doi:10.1038/s41467-023-39022-2 (FLAb copy).

Target: peptide PDVDLGDISGINAS, taken from heptad repeat 2 (HR2) of SARS-CoV-2 spike.

Each scFv is VH, the linker GGGGSGGGGSGGGGS, VL, as in the parent Ab-14, and differs from it in the CDRs of the light chain only.
VH: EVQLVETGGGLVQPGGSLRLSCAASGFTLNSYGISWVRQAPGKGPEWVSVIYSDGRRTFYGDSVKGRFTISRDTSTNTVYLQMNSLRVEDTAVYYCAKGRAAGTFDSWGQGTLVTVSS
VL: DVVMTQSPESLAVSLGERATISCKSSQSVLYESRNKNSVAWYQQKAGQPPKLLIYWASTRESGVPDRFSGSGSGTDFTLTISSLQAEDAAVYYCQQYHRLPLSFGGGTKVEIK

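The parent was found by panning a naive human phage display library on the peptide. Designed CDR sequences, proposed from the first random library and measured here. Several design methods are mixed in this list. AlphaSeq pools MATa yeast showing the antibodies with MATalpha yeast showing the peptide. Binding brings cells together so that they mate, and sequencing counts the barcode pairs among the diploids. Read counts were normalised to the haploid input and turned into Kd by a linear fit to BCL2-family pairs of known affinity, for each replicate. Each pool was mated in six replicate cultures.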

Substitutions are numbered in sequence along the VL above, starting at 1 (not Kabat).
This list holds designs with at most six substitutions.
Numbers give log10(Kd / nM), so 0 is 1 nM and 3 is 1 µM. Smaller is tighter.
Replicates are averaged; those with no signal do not enter the mean.
A pair that was not seen in any replicate is written "no signal"; this usually means weak binding, but a binder can also be missed.
The authors' rule: three or more of the six replicates give a measured affinity, fewer mean a poor binder.
As a blank, each scFv also met three strains without target: over all light chain designs, 4% of these pairings were detected, typically at 2.64 and seldom below 1.59. Also given: how often the same scFv was detected with the empty control strains.
The parent sequence was in this pool as ten entries: three were never detected, three once, and four in most replicates, with averages from 0.34 to 2.37.
The range of this assay differs from that of the first round, and the authors advise against merging the two.

changes	mean, log10 nM	replicates with signal	empty controls
S25E+L30P+Y31F+S33W+W56D+S62Q	-0.22	6/6	2/18
S28W+E32I+W56T	no signal	0/6	0/18
S25L+S26Y+W56N+E61C	-0.05	6/6	3/18
R34T+V39I+W56A	2.87	2/6	0/18
S25L+S26E+V29H+S38N+W56N	0.06	6/6	3/18
S25L+S26M+W56N+T59Q+S62Q	-0.07	6/6	1/18
S25F+S26G+S28G+W56G+T59L	0.06	6/6	1/18
R34G+N35E	2.37	4/6	0/18
S28W+L30Q+W56H+Q96S+R99E	0.64	6/6	0/18
S26Q+S38A+W56N	2.76	6/6	0/18
S25L+W56E+T59Q+S62V	0.14	6/6	0/18
Y31D+N37D	1.30	6/6	1/18
S25P+R60C+Y97E	no signal	0/6	0/18
Q27W+V29G+N35M+W56E	no signal	0/6	0/18
Q27T+V29Y+K36T+W56E	2.07	6/6	0/18
L30T+W56M+E61V	1.57	6/6	2/18
Y31D+E32D+R34D	1.66	6/6	2/18
Q27G+S33D+R34T	2.66	6/6	0/18
S58T+S62R+Q95G	no signal	0/6	0/18
S25L+S26P+V29F+W56G	0.43	6/6	1/18
S25V+Q27E+W56E	0.00	6/6	1/18
R34C+S62A	1.93	3/6	0/18
S25W+Q27I+Y31H+L100M	no signal	0/6	0/18
K24R+N35M+W56D+S58T	0.36	6/6	0/18
W56F+P101H	no signal	0/6	2/18
S25L+V29M+E32D+W56N	-0.34	6/6	1/18
S26R+R34T+L100D+P101S	no signal	0/6	0/18
V29E+S103P	no signal	0/6	0/18
L30D+S33D+W56N	0.01	6/6	4/18
V29W+K36F+W56G+E61Y	0.41	6/6	0/18
S25L+S26Y+V29E+W56N	-0.23	6/6	0/18
S25L+S26Q+V29H+W56Q	-0.09	6/6	2/18
S25I+Y31K+R34E+W56D+P101V	0.53	6/6	0/18
L30Y+R34E+L102W	no signal	0/6	1/18
S25L+S26L+S33G+W56H+S62D	0.16	6/6	1/18
S26L+W56H+S58E+S62D	-0.11	6/6	0/18
S26G+Q27P+S28G+W56G+A57G	0.21	6/6	2/18
S25L+S26P+S38N+W56G	-0.30	6/6	0/18
Y31Q+N35T+S38N+W56N	0.33	6/6	0/18
S25I+L30E+S33D+W56N+T59Q	0.01	6/6	3/18
K24H+S25W+Q27P+L30A+W56N	-0.33	6/6	0/18
Y31T+S58R	4.08	1/6	0/18
S25V+V29Q+W56N+T59Q	-0.13	6/6	1/18
S25L+V29H+N35M+W56N+T59Q	0.04	6/6	0/18
S26G+S28G+V29E+W56G+T59L	0.40	6/6	2/18
V29P	1.28	4/6	0/18
R34A+W56E+T59Q	0.87	6/6	0/18
K24F+Q27M+L30M+N37A+W56Q	2.05	4/6	0/18
S25L+V29W+W56N+E61F	-0.14	6/6	0/18
S25L+V29E+N35M+W56N+E61C	0.05	6/6	0/18
S25L+V29Q+L30E+W56N+E61L	-0.19	6/6	0/18
S25L+S26Q+V29N+W56N+E61M	-0.21	6/6	1/18
S25F+Q27I+V29Y+W56A	0.46	6/6	0/18
Q27V+V29A+W56H+Q96N	1.13	6/6	1/18
S25W+Q27I+V29Y+Y31E+W56E	0.64	6/6	0/18
S25L+N35M+W56N+A57G	0.47	6/6	1/18
S25L+S33D+W56N+T59Q+S62M	-0.09	6/6	0/18
Q27D+Y31N+K36G+V39F	no signal	0/6	1/18
S25M+V29H+W56N+T59Q	-0.23	6/6	1/18
S26D+W56A+S103D	1.10	6/6	0/18
S25M+S26E+S28G+V29E+W56G+T59V	0.00	6/6	0/18

The first 4 entries again:

| changes | mean, log10 nM | replicates with signal | empty controls |
|---|---|---|---|
| S25E+L30P+Y31F+S33W+W56D+S62Q | -0.22 | 6/6 | 2/18 |
| S28W+E32I+W56T | no signal | 0/6 | 0/18 |
| S25L+S26Y+W56N+E61C | -0.05 | 6/6 | 3/18 |
| R34T+V39I+W56A | 2.87 | 2/6 | 0/18 |